# Data from ChEMBL document CHEMBL1147428, “A new class of potent non-imidazole H(3) antagonists: 2-aminoethylbenzofurans” (Bioorg Med Chem Lett, 2004).
# Amino acid sequences for entries named in this document (tags omitted). A change or cut given only in a name is not applied to a line headed by its entry.
# UniProt Q9QYN8: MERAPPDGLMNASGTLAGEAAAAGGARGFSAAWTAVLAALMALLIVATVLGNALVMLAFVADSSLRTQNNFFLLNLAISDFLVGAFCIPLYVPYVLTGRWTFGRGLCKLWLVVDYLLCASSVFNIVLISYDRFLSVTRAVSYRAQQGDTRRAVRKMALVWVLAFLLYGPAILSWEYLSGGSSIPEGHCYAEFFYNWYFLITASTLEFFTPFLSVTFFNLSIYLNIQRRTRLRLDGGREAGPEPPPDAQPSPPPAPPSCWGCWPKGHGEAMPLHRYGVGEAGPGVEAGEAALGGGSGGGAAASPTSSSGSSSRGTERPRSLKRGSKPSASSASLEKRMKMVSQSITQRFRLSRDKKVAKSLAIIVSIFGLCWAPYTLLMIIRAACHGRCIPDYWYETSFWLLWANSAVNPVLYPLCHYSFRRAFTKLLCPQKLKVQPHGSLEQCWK
# Target: Histamine H3 receptor (Rattus norvegicus, UniProt Q9QYN8)
# Test: Binding potency was determined by displacement of [3H]N-alpha-methyl histamine from histamine H3 receptor of rat cortical membranes
# Assay type: cell membranes, Membrane
row,Ki [µM],Structure (SMILES)
1,0.16,N#Cc1ccc(-c2ccc3oc(CCN4CCC[C@@H]4CO)cc3c2)cc1
2,0.026,N#Cc1ccc(-c2ccc3oc(CCN4CCC[C@H]4CO)cc3c2)cc1
3,0.043,CC1CCN(CCc2cc3cc(-c4ccc(C(=O)N5CCOCC5)cc4)ccc3o2)CC1

# More lines, now with the values behind:
row,Structure (SMILES),Ki [µM]
1,N#Cc1ccc(-c2ccc3oc(CCN4CCCCCC4)cc3c2)cc1,0.044
2,O=C(c1ccc(-c2ccc3oc(CCN4CCC(O)C4)cc3c2)nc1)N1CCOCC1 (stereo not drawn),0.067
3,N#Cc1ccc(-c2ccc3oc(CCn4ccnc4)cc3c2)cc1,2.2
4,O=C(c1ccc(-c2ccc3oc(CCN4CCCCCC4)cc3c2)cc1)N1CCOCC1,0.01
5,C[C@@H]1CC[C@@H](C)N1CCc1cc2cc(-c3ccc(C(=O)N4CCOCC4)cc3)ccc2o1,0.0069
